Measured values taken from patent US7105505B2, “Benzimidazole derivatives useful as histamine H3 antagonists” (Schering Corporation, priority 2002, dated 2006).

The chains behind the UniProt entries cited, without tags or fusion partners.
UniProt Q9JI35, whole entry: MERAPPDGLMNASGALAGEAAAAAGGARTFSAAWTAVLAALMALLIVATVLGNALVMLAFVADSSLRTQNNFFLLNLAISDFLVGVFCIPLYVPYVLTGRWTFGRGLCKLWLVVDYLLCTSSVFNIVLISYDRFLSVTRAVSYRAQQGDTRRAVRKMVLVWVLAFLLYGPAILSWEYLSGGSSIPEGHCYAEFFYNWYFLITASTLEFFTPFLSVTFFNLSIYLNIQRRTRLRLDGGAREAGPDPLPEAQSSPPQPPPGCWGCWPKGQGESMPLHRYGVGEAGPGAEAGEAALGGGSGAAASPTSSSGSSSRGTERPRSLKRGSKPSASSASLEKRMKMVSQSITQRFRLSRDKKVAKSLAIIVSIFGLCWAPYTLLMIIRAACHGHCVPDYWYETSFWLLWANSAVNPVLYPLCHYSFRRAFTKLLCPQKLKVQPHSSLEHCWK

Target: H3 receptors (Cavia porcellus, UniProt Q9JI35)
Test: H3 Receptor Binding Assay (guinea pig brain membranes)
Settings: Receptor Source Guinea pig, [3H]R-α-methyl histamine or [3H]Nα-methyl histamine

Compound CC(C)c1nc2cc(Br)ccc2n1C1CCN(C(=O)C2CCN(Cc3ccnc(N)c3)CC2)CC1 has a Ki of 27 nM.
